{
  "source": "patent US20030068416A1",
  "about": "“Method of lyophylization to reduce solvent content and enhance product recovery” (priority 2001, published 2003)",
  "assay": "Residual solvent content of human IgG and Albumin after freeze-drying with or without sodium ascorbate and/or mannitol (Example 5)",
  "format": "physicochemical",
  "conditions": "for residual moisture content: combination of ascorbate (100 mM) and mannitol (10%)",
  "experimental": "When the solvent is water, the residual solvent content referenced herein refer to levels determined by the FDA approved, modified Karl Fischer method (Meyer and Boyd, Analytical Chem., 31:215-219, 1959; May, et al., J. Biol. Standardization, 10:249-259, 1982; Centers for Biologics Evaluation and Research, FDA, Docket No. 89D-0140, 83-93; 1990) or by near infrared spectroscopy.\nSamples of human IgG and Albumin were each aliquoted into 3 ml Wheaton vials and partially stoppered with Stelmi stoppers. The vials were placed onto aluminum freeze-drying trays and placed into the freeze-dryer. Three independent freeze-drying runs were conducted for each protein. At the completion of each freeze-drying run, the vials were stoppered and sealed with aluminum seals until analyzed.\nHuman IgG—1 ml of reprocessed human IgG (10%) was added to vials. Additional vials contained (1) IgG+10% mannitol, (2) IgG+100 mM sodium ascorbate and (3) IgG+10% mannitol+100 mM sodium ascorbate.\nAlbumin—1 ml of either 12.5% or 25% Albumin was added to vials. Additional vials contained (1) Albumin+10% mannitol, (2) Albumin+100 mM sodium ascorbate and (3) Albumin+10% mannitol+100 mM sodium ascorbate.",
  "key": {"[1]": {"conditions": "absence of ascorbate (protein alone)"}, "[2]": {"conditions": "presence of 100 mM sodium ascorbate"}},
  "data": [
    {"substance": "25% albumin preparation: 1 ml of 25% Albumin per vial", "values": [
      {"measurement": "residual solvent content", "setting": "[1]", "value": "about 0.55 % water"},
      {"measurement": "residual moisture content", "value": 0.3, "unit": "%"},
      {"measurement": "residual solvent content", "setting": "[2]", "value": "about 0.5 % water"},
      {"measurement": "residual solvent content", "setting": "presence of mannitol (10%)", "value": 0.35, "unit": "% water"}
    ]},
    {"substance": "12.5% albumin preparation: 1 ml of 12.5% Albumin per vial", "values": [
      {"measurement": "residual solvent content", "setting": "[1]", "value": "about 1.25 % water"},
      {"measurement": "residual moisture content", "value": 0.3, "unit": "%"},
      {"measurement": "residual solvent content", "setting": "[2]", "value": "about 0.75 % water"},
      {"measurement": "residual solvent content", "setting": "presence of mannitol (10%)", "value": 0.3, "unit": "% water"}
    ]}
  ]
}
